From patent publication US5276120A, “Process for forming omega-deuxy-azasugars” (The Scripps Research Institute, priority 1992, dated 1994)

Molecular target: T1, α-D-Mannosidase (jack bean) (Canavalia ensiformis, UniProt C0HJB3)
T1 construct: purchased Sigma
T1 sequence (C0HJB3 1-562 limits assumed): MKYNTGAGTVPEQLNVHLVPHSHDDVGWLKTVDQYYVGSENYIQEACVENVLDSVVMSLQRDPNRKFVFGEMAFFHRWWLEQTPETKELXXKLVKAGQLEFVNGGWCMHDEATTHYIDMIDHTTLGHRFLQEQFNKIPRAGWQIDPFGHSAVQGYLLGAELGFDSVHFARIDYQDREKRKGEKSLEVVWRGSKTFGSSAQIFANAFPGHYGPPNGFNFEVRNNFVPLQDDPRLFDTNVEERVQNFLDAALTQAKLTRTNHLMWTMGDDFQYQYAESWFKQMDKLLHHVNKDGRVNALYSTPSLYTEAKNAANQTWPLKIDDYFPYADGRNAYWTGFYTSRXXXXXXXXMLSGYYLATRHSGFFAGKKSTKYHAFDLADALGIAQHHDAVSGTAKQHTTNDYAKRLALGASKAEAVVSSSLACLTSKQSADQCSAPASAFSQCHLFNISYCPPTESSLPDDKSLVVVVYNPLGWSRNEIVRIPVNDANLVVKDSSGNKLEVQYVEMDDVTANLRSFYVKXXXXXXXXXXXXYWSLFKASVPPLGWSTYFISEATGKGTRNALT
T1 sequence (C0HJB3 563-981 limits assumed): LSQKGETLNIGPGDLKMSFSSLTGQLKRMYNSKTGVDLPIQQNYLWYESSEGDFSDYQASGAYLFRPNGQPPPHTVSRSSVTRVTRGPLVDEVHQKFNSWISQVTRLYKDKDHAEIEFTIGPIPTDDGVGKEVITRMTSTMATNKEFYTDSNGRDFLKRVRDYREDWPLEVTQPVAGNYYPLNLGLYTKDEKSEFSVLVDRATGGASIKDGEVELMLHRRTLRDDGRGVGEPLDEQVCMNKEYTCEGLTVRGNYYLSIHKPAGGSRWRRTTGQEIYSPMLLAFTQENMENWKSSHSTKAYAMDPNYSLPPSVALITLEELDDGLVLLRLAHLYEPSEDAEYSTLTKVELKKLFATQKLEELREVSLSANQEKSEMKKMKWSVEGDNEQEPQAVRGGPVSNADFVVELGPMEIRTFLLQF
Assay: Glycosidase inhibition, α-D-mannosidase (jack bean)
Type: biochemical
Conditions: pH 6.5
Procedure: Materials: All of the buffers, enzymes, and substrates were purchased from Sigma and used as received. These included piperazine-N,N'-bis(2-ethanesulfonic acid) (PIPES), sodium acetate (NaOAc), ethylenediaminetetraacetic acid (EDTA), β-D-glucosidase (from sweet almond), p-nitrophenyl β-D-glucoside, α-D-glucosidase, p-nitrophenyl α-D-glucoside, β-N-acetyl-D-glucosaminedase, p-nitrophenyl β-N-acetyl-D-glucosaminide, α-D-mannosidase, and p-nitrophenyl α-D-mannoside.
f) α-D-Mannosidase: 5 mg of the solid protein were suspended in 1 mL of 3.0M (NH4)2 SO4 and 0.1 zinc acetate (ZnOAc), as distributed by Sigma.
g) Substrate solutions: all substrates were dissolved in the corresponding buffer solution for enzymatic assay.
For each inhibitor, five inhibitor concentrations, ranging from zero to three times Ki, were generally used to determine the Ki value. At each inhibitor concentration, six substrate concentrations, spanning from 0.4 Km to 4 Km, were used to obtain a single Lineweaver-Burk plot. The amount of enzyme added in each assay was adjusted so that less than 10 percent of the substrate, with its lowest substrate concentration, would be consumed within 45 seconds. Since all of the substrates have p-nitrophenol as leaving group, the assays were monitored at 400 nanometers (nm), where the molecular extinction coefficient, ε, was calibrated to be 3204.5M^-1 cm^-1 at pH 6.5. […]

`OCC1NCC(O)C(O)C1O` (stereo not shown) [Compound 23, 1-deoxynojirimycin] was tested. Which Ki did it give?
The Ki was 400 µM.
